{"sequences": {"note": "Sequences of proteins named here, by UniProt entry; tags and fusion partners are left off.", "UniProt P42338, whole entry, species assumed": "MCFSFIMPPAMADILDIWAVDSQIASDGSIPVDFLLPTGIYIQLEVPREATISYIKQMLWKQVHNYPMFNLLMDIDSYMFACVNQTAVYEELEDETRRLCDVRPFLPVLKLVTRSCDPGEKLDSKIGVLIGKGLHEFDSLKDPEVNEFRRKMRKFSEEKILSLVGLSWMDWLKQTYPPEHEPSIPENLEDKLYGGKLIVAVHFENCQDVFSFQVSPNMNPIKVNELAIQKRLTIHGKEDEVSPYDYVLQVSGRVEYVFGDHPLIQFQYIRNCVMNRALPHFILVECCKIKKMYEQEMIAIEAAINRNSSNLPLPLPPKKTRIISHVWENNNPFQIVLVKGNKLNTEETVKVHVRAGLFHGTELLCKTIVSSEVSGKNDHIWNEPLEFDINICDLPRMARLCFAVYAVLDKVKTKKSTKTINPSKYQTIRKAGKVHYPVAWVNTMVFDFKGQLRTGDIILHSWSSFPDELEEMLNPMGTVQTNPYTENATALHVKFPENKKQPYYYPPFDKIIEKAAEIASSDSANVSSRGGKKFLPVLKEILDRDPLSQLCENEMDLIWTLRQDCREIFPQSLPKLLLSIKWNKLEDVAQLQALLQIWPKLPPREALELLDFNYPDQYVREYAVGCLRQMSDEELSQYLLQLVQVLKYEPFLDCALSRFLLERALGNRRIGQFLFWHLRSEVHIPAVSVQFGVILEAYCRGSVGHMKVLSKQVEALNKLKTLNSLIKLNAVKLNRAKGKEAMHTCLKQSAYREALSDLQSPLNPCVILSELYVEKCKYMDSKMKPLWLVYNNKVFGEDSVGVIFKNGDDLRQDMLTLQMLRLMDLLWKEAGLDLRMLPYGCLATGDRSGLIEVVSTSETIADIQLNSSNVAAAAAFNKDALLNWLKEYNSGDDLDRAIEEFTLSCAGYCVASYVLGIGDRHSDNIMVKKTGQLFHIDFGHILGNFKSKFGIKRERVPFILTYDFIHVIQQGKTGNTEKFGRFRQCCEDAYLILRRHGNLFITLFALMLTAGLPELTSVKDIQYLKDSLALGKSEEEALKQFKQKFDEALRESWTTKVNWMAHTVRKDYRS"}, "source": "patent US8940724B2", "about": "“Quinoline derivitives and their uses” (Amgen Inc., priority 2009, dated 2015)", "origin": "cited, not measured here", "molecular_target": "p110β (Homo sapiens, UniProt P42338)", "details": "read-out: potency on beta; cited from earlier work", "data": [{"smiles": "Cc1cc(C(C)Nc2ccccc2)c2nc(N3CCOCC3)cc(=O)n2c1", "note": "(stereo not shown) [TGX-221]", "values": [{"measurement": "IC50", "value": 7, "unit": "nM"}]}]}
